The results in this text go back to ChEMBL document CHEMBL4311994, “New 2,6-diaminopyridines containing a sterically hindered benzylphosphonate moiety in the aromatic core as potential antioxidant and anti-cancer drugs” (Eur J Med Chem, 2019).

Active and inactive are the calls of the source. The rule behind the calls is not given here.

This assay is described as follows: Antioxidant activity assessed as ABAP free radical scavenging activity by measuring decrease in chemiluminescence intensity at 0.25 to 1 mM by luminescence based assay. The format is functional.

As to `CC(C)(C)c1cc(C2c3ccc(N)nc3NP2(=O)Oc2ccccc2)cc(C(C)(C)C)c1O` (stereo unspecified), the outcome was Active.
